Reference: PubChem BioAssay (NCI)
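Each compound was tested at five concentrations against cells in 96-well plates for 48 hours. GI50 = concentration required for 50% inhibition of growth. Definition used: TGI = concentration required for complete inhibition of growth.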

How the values were obtained:
Test in all cases: DTP human tumour cell line panel, 48 h
SNB-75 CNS = system: SNB-75 CNS
786-0 renal = system: 786-0 renal
KM20L2 colon = system: KM20L2 colon
EKVX NSCLC = system: EKVX NSCLC
NCI-H522 lung = system: NCI-H522 lung
SK-MEL-28 melanoma = system: SK-MEL-28 melanoma
DLD-1 colon = system: DLD-1 colon
IGROV1 ovarian = system: IGROV1 ovarian
HCT-15 colon = system: HCT-15 colon
HCT-116 colon = system: HCT-116 colon
MOLT-4 leukemia = system: MOLT-4 leukemia
HL-60(TB) leukemia = system: HL-60(TB) leukemia
NCI-H226 lung = system: NCI-H226 lung
HT29 colon = system: HT29 colon
SN12C renal = system: SN12C renal
HOP-92 NSCLC = system: HOP-92 NSCLC
OVCAR-4 ovarian = system: OVCAR-4 ovarian
MALME-3M melanoma = system: MALME-3M melanoma
RXF 393 renal = system: RXF 393 renal
SK-MEL-5 melanoma = system: SK-MEL-5 melanoma
K-562 leukemia = system: K-562 leukemia
NCI-H23 lung = system: NCI-H23 lung
M19-MEL melanoma = system: M19-MEL melanoma
UO-31 renal = system: UO-31 renal
NCI-H322M lung = system: NCI-H322M lung
UACC-62 melanoma = system: UACC-62 melanoma
SNB-19 CNS = system: SNB-19 CNS
UACC-257 melanoma = system: UACC-257 melanoma
SNB-78 CNS = system: SNB-78 CNS
CCRF-CEM leukemia = system: CCRF-CEM leukemia
LXFL 529 NSCLC = system: LXFL 529 NSCLC
OVCAR-5 ovarian = system: OVCAR-5 ovarian
COLO 205 colon = system: COLO 205 colon
TK-10 renal = system: TK-10 renal
HCC-2998 colon = system: HCC-2998 colon
HOP-62 NSCLC = system: HOP-62 NSCLC
DMS 273 small cell lung = system: DMS 273 small cell lung
SR leukemia = system: SR leukemia
SF-295 CNS = system: SF-295 CNS
KM12 colon = system: KM12 colon
HOP-18 NSCLC = system: HOP-18 NSCLC
A498 renal = system: A498 renal
A549 NSCLC = system: A549 NSCLC
DMS 114 small cell lung = system: DMS 114 small cell lung
NCI-H460 lung = system: NCI-H460 lung
SF-268 CNS = system: SF-268 CNS
OVCAR-3 ovarian = system: OVCAR-3 ovarian
SF-539 CNS = system: SF-539 CNS
U251 CNS = system: U251 CNS
LOX IMVI melanoma = system: LOX IMVI melanoma
XF 498 CNS = system: XF 498 CNS
SK-MEL-2 melanoma = system: SK-MEL-2 melanoma
M14 melanoma = system: M14 melanoma
OVCAR-8 ovarian = system: OVCAR-8 ovarian
ACHN renal = system: ACHN renal
CAKI-1 renal = system: CAKI-1 renal

For `CC[C@H](C)[C@H]1NC(=O)/C(=C(\C)O)C1=O`, the GI50 (SNB-75 CNS) was 91.2 µM, the TGI (SNB-75 CNS) was > 100 µM and the GI50 (786-0 renal) was 98.7 µM. The TGI (786-0 renal) was > 100 µM, the GI50 (KM20L2 colon) was > 100 µM and the TGI (KM20L2 colon) was > 100 µM. The GI50 (EKVX NSCLC) was > 100 µM, the TGI (EKVX NSCLC) was > 100 µM and the GI50 (NCI-H522 lung) was 88.6 µM. For the same compound, the TGI (NCI-H522 lung) was > 100 µM, the GI50 (SK-MEL-28 melanoma) was 63.9 µM and the TGI (SK-MEL-28 melanoma) was > 100 µM. For the same compound, the GI50 (DLD-1 colon) was 70.3 µM, the TGI (DLD-1 colon) was > 100 µM and the GI50 (IGROV1 ovarian) was > 100 µM. The TGI (IGROV1 ovarian) was > 100 µM, the GI50 (HCT-15 colon) was 79.9 µM and the TGI (HCT-15 colon) was > 100 µM. For the same compound, the GI50 (HCT-116 colon) was 51.9 µM, the TGI (HCT-116 colon) was > 100 µM and the GI50 (MOLT-4 leukemia) was > 100 µM. The TGI (MOLT-4 leukemia) was > 100 µM, the GI50 (HL-60(TB) leukemia) was 99.7 µM and the TGI (HL-60(TB) leukemia) was > 100 µM. For the same compound, the GI50 (NCI-H226 lung) was > 100 µM, the TGI (NCI-H226 lung) was > 100 µM and the GI50 (HT29 colon) was > 100 µM. For the same compound, the TGI (HT29 colon) was > 100 µM, the GI50 (SN12C renal) was 83.6 µM and the TGI (SN12C renal) was > 100 µM. For the same compound, the GI50 (HOP-92 NSCLC) was > 100 µM, the TGI (HOP-92 NSCLC) was > 100 µM and the GI50 (OVCAR-4 ovarian) was 96 µM. For the same compound, the TGI (OVCAR-4 ovarian) was > 100 µM, the GI50 (MALME-3M melanoma) was > 100 µM and the TGI (MALME-3M melanoma) was > 100 µM. The GI50 (RXF 393 renal) was 23.3 µM, the TGI (RXF 393 renal) was 78 µM and the GI50 (SK-MEL-5 melanoma) was 98.8 µM. For the same compound, the TGI (SK-MEL-5 melanoma) was > 100 µM, the GI50 (K-562 leukemia) was > 100 µM and the TGI (K-562 leukemia) was > 100 µM. The GI50 (NCI-H23 lung) was > 100 µM, the TGI (NCI-H23 lung) was > 100 µM and the GI50 (M19-MEL melanoma) was 71.3 µM. For the same compound, the TGI (M19-MEL melanoma) was > 100 µM, the GI50 (UO-31 renal) was > 100 µM and the TGI (UO-31 renal) was > 100 µM. The GI50 (NCI-H322M lung) was > 100 µM, the TGI (NCI-H322M lung) was > 100 µM and the GI50 (UACC-62 melanoma) was 97.5 µM. The TGI (UACC-62 melanoma) was > 100 µM, the GI50 (SNB-19 CNS) was 78.4 µM and the TGI (SNB-19 CNS) was > 100 µM. For the same compound, the GI50 (UACC-257 melanoma) was 51.6 µM, the TGI (UACC-257 melanoma) was > 100 µM and the GI50 (SNB-78 CNS) was > 100 µM. The TGI (SNB-78 CNS) was > 100 µM, the GI50 (CCRF-CEM leukemia) was 52.3 µM and the TGI (CCRF-CEM leukemia) was > 100 µM. For the same compound, the GI50 (LXFL 529 NSCLC) was 66.6 µM, the TGI (LXFL 529 NSCLC) was > 100 µM and the GI50 (OVCAR-5 ovarian) was > 100 µM. The TGI (OVCAR-5 ovarian) was > 100 µM, the GI50 (COLO 205 colon) was > 100 µM and the TGI (COLO 205 colon) was > 100 µM. For the same compound, the GI50 (TK-10 renal) was > 100 µM, the TGI (TK-10 renal) was > 100 µM and the GI50 (HCC-2998 colon) was 53.9 µM. For the same compound, the TGI (HCC-2998 colon) was > 100 µM, the GI50 (HOP-62 NSCLC) was > 100 µM and the TGI (HOP-62 NSCLC) was > 100 µM. For the same compound, the GI50 (DMS 273 small cell lung) was > 100 µM, the TGI (DMS 273 small cell lung) was > 100 µM and the GI50 (SR leukemia) was 58.3 µM. For the same compound, the TGI (SR leukemia) was > 100 µM, the GI50 (SF-295 CNS) was > 100 µM and the TGI (SF-295 CNS) was > 100 µM. The GI50 (KM12 colon) was 96.4 µM, the TGI (KM12 colon) was > 100 µM and the GI50 (HOP-18 NSCLC) was 58.1 µM. The TGI (HOP-18 NSCLC) was > 100 µM, the GI50 (A498 renal) was > 100 µM and the TGI (A498 renal) was > 100 µM. The GI50 (A549 NSCLC) was > 100 µM, the TGI (A549 NSCLC) was > 100 µM and the GI50 (DMS 114 small cell lung) was 76.7 µM. The TGI (DMS 114 small cell lung) was > 100 µM, the GI50 (NCI-H460 lung) was 80 µM and the TGI (NCI-H460 lung) was > 100 µM. For the same compound, the GI50 (SF-268 CNS) was 55.2 µM, the TGI (SF-268 CNS) was > 100 µM and the GI50 (OVCAR-3 ovarian) was 73 µM. For the same compound, the TGI (OVCAR-3 ovarian) was > 100 µM, the GI50 (SF-539 CNS) was > 100 µM and the TGI (SF-539 CNS) was > 100 µM. For the same compound, the GI50 (U251 CNS) was 52.7 µM, the TGI (U251 CNS) was > 100 µM and the GI50 (LOX IMVI melanoma) was 62.3 µM. For the same compound, the TGI (LOX IMVI melanoma) was > 100 µM, the GI50 (XF 498 CNS) was > 100 µM and the TGI (XF 498 CNS) was > 100 µM. For the same compound, the GI50 (SK-MEL-2 melanoma) was 95.3 µM, the TGI (SK-MEL-2 melanoma) was > 100 µM and the GI50 (M14 melanoma) was > 100 µM. The TGI (M14 melanoma) was > 100 µM, the GI50 (OVCAR-8 ovarian) was > 100 µM and the TGI (OVCAR-8 ovarian) was > 100 µM. The GI50 (ACHN renal) was > 100 µM, the TGI (ACHN renal) was > 100 µM and the GI50 (CAKI-1 renal) was > 100 µM. The TGI (CAKI-1 renal) was > 100 µM.
